{"source": "patent US9255295B2", "about": "“Method for evaluating the sensitizing potential of a test compound” (IMMUNOSEARCH, priority 2010, dated 2016)", "origin": "cited, not measured here", "conditions": "official classification: non-sensitizer, irritant, or sensitizing Extreme/Strong/Moderate/Weak; cited from earlier work"}
{"smiles": "O=[N+]([O-])c1cc([N+](=O)[O-])c(S(=O)(=O)O)c([N+](=O)[O-])c1", "values": [{"measurement": "Class", "value": "S"}]}
